One molecule from PMC10095747 (2023) can be followed below.

Sequences of proteins named here, by UniProt entry; tags and fusion partners are left off.
UniProt P33261, whole entry: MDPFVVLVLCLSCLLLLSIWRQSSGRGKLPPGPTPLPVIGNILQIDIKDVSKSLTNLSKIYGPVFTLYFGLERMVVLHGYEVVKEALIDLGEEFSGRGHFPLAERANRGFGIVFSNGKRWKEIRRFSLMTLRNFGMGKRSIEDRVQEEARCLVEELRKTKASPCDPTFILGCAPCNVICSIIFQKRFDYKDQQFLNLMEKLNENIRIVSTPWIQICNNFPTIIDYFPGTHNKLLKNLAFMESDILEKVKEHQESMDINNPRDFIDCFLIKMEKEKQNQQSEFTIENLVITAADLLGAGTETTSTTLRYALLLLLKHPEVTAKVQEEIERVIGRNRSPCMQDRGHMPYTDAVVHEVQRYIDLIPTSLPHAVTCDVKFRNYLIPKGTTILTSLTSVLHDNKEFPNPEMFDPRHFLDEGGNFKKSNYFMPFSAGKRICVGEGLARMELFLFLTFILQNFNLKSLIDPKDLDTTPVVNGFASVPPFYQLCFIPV

The target of this assay is rCYP2C19 (Homo sapiens, UniProt P33261). The experiment in a line: luminogenic P450-Glo CYP450 inhibition assay, rCYP2C19. Particulars: Median IC50 (Range) rCYP2C19, median (range), three independent experiments.

In the case of `Cc1c(C)c2c(c(C)c1O)CCC(C)(COc1ccc(CC3SC(=O)NC3=O)cc1)O2` (stereo not shown) [Troglitazone, reference compound], inhibition was half-maximal at 2070 nM (IC50).

By IC50 is commonly meant the concentration at which inhibition is half-maximal.
